Measured values published in US12168639B2 (priority 2013, dated 2024).
Some compounds may have been tested in ways that are not shown here.

Tests used:
rat model of T2D = experiment: 14 days DNPME in nicotinamide/streptozotocin high fat fed rats
Description: To induce mild beta-cell defect and type 2 diabetes, rats were injected with 75 mg/kg nicotinamide and, following a 15 minute wait, the rats were injected with 60 mg/kg streptozotocin. Animals were allowed to recover for 3 days, and those with random plasma glucose between 150 and 350 mg/dl were used for further study. At this time, high fat diet and sucrose water feeding was initiated. After 3 days of feeding, two weeks of daily DNPME or vehicle injections were begun.
(§1) Liver and kidney samples were prepared and stained with hematoxylin & eosin, and analyzed (Kleiner et al., 2005, Hepatology 41:1313-1321).
Following an overnight fast, rats with a jugular venous line were injected with a 1 g/kg intraperitoneal bolus of 50% dextrose. Blood samples were taken through the venous line before and 5, 10, 20, 30, 45, 60, and 90 min after the dextrose injection. Plasma glucose was measured enzymatically on the YSI Life Sciences 2700 Select Biochemistry Analyzer (Yellow Springs, OH), and plasma insulin was measured by radioimmunoassay. Area under the curve was measured from time point A to subsequent time point B according to the following formula: […]
Triacylglycerol (TAG) in liver and quadriceps muscle were extracted (Bligh & Dyer, 1959, Can. J. Biochem. Physiol. 37:911-917) and measured spectrophotometrically with Diagnostic Chemicals triglyceride reagent (Diagnostic Chemicals Ltd [DCL], Charlottetown, Canada). Liver and quadriceps diacylglycerol (DAG) were extracted by homogenization in a buffer containing 20 mM Tris-HCl, 1 mM EDTA, 0.25 mM EGTA, 250 mM sucrose, 2 mM phenylmethylsulfonyl fluoride, and a protease inhibitor mixture (Roche, Indianapolis, Indiana). The cytosolic fragment was isolated from the supernatant after high speed centrifugation for 1 hour. Diacylglycerol (DAG) and ceramide content was measured by liquid chromatography/mass spectrometry/mass spectrometry (Bligh & Dyer, 1959, Can. J. Biochem. Physiol. 37:911-917).

rats = experiment: 50% lethal dose (LD50) determination
Description: (§2) For the acute toxicity studies, rats were treated with an IP injection of DNPME in 100% DMSO at doses 1, 2.5, 5, 10, 25, 50, 100, and 200 mg/kg body weight. Rectal temperature was measured with a microprobe thermometer (Physitemp Instruments, Clifton, NJ) at intervals up to 2 hours after injection of the drug. Rectal temperature was measured weekly in a separate group of rats injected daily with DNPME or vehicle for 6 weeks. A separate group of rats were injected with increasing doses of DNP or DNPME in 100% DMSO to determine the 50% lethal dose (LD50). The 50% lethal dose was taken to be the dose at which 50% of rats died within 24 hours of treatment.

[1] = system: Zucker Diabetic Fatty (ZDF) rats; experiment: 5 day treatment of Zucker Diabetic Fatty rats on high fat diet and sucrose water
From the text: Despite having no difference in body weight or white adipose tissue weight, and consistent with a primarily hepatic uncoupling effect and unchanged whole-body metabolism, DNPME treatment normalized fasting plasma glucose and triglyceride concentrations (FIGS. 3A-3C). […] To further test the hypothesis that DNPME treatment ameliorates hyperglycemia in a rat model of chronic type 2 diabetes, 5 day treatment studies on Zucker Diabetic Fatty (ZDF) rats concurrently fed high fat diet and sucrose water were performed.

chow-fed rats = experiment: Six weeks of daily treatment in chow-fed rats; details: six weeks daily 5 mg/kg vs vehicle
Description: as §2
To assess renal and hepatic toxicity, a group of catheterized rats was treated with an intraperitoneal (IP) injection of DMSO vehicle or 1, 2.5, 5, 10, 25 50, 100, or 200 mg/kg DNPME in DMSO daily. After five days, the rats were sacrificed and plasma obtained from the intravenous catheter. The COBAS Mira Plus (Roche Diagnostics, Indianapolis, IN) was used to measure plasma alanine aminotransferase (ALT), aspartate aminotransferase (AST), and blood urea nitrogen (BUN). Plasma creatinine was measured by liquid chromatography/mass spectrometry/mass sprectrometry (LC/MS/MS). 24 hour creatinine clearance was measured by housing rats treated with DNPME or vehicle in metabolic cages for 24 hours, collecting the urine, and measuring urine creatinine concentration by LC/MS/MS.
as §1

[2] = system: liver TCA cycle flux and pyruvate carboxylase flux; experiment: Hepatic flux rates ([3-13C] lactate infusion, NMR and LC/MS/MS); details: DNPME treated vs vehicle
Description: To measure liver-specific flux through the TCA cycle, a steady-state infusion of [3-^13C] lactate (5 min prime 120 μmol/[kg-min], 115 min continuous infusion 40 μmol/[kg-min]) and [^3H] glucose (44 μmol/min) was performed. At 120 min, plasma and livers were isolated, and hepatic fluxes were measured by nuclear magnetic resonance (NMR) and LC/MS/MS.
To measure total glutamate enrichment from livers of rats infused with [3-^13C] lactate, ˜100 mg frozen liver were homogenized in 400 μL ice-cold 50% acetonitrile. The samples were centrifuged at 10,000 g for 10 min, and the supernatant was isolated. […]
Livers from rats infused with [3-^13C] lactate and [^3H] glucose were extracted with perchloric acid (Alves et al., 2011, Hepatology 53:1175-1181). Basal glucose turnover was measured (Maggs, 1998, Annals of Internal Medicine 128:176-185); as these rats were overnight fasted with low hepatic glycogen concentrations (FIG. 6P), all glucose production was presumed to be from gluconeogenesis. It was assumed that gluconeogenesis was 90% hepatic and 10% renal; from whole-body gluconeogenesis data, the absolute hepatic gluconeogenesis could then be calculated. […]
[formula] from the calculated VTCA, VPDH could be determined using this equation, and the contribution of fatty acid oxidation to the TCA cycle could be determined as the difference between VTCA and VPDH. […]

## COc1ccc([N+](=O)[O-])cc1[N+](=O)[O-]
Rat model of T2D
  fasting plasma glucose concentrations: normalized
  fasting plasma triglyceride concentrations: normalized
  glucose tolerance: marked improvement
  liver TAG content: marked reduction
  muscle TAG content: marked reduction
  renal or hepatic histopathology: without any indication
rats; death within 24 hours of treatment
  LD50 dose relative to that of DNP: almost tenfold higher
rats; rat, in vivo
  therapeutic index (LD50/ED50): 70
[1]
  fasting plasma glucose: reductions
  fasting plasma insulin: reductions
  liver or renal dysfunction: no indication
  liver triglyceride concentrations: reductions
chow-fed rats
  liver or renal function tests: no differences
  liver or renal histology: no differences
  rectal temperature: no differences
[2]
  increase in rates of hepatic TCA flux: 50%
  reduction in hepatic pyruvate carboxylase flux: 30%
